Data from US10287267B2, “Isoquinolin-3-yl carboxamides and preparation and use thereof” (Samumed, LLC, priority 2016, dated 2019).
pEC50: −log10 of the molar value.
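Also: kinase activity read as coumarin to fluorescein emission ratio, 11-point threefold dilutions from 10 µM to 0.0003 µM in duplicate, unphosphorylated and phosphorylated peptide as 0% and 100% controls.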

The chains behind the UniProt entries cited, without tags or fusion partners. Where a name states a change or a piece, a line headed by the entry shows the natural chain unless it says otherwise.
UniProt P49841: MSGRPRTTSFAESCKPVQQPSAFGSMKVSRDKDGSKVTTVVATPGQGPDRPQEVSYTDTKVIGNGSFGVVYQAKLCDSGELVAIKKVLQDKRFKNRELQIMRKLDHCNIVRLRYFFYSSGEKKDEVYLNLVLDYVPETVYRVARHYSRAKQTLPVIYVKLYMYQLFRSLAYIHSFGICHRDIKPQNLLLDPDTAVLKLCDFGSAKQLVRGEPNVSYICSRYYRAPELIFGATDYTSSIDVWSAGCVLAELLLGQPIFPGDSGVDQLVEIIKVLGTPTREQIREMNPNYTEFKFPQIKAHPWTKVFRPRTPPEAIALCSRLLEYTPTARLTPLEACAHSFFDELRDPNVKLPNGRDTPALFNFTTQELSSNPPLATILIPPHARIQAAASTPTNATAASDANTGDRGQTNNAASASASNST

What follows are compounds tested against recombinant GSK3β kinase (Homo sapiens (Human), UniProt P49841) (assay: GSK3β kinase assay (Ser/Thr 09 peptide Z-lyte FRET)). Details: 46 μM ATP, 1 h room temperature.
Format: biochemical
`CC(C)CN1CCC(C(=O)Nc2cc3cc(-c4cnn(C)c4)ccc3cn2)CC1` [Compound 77, 1-Isobutyl-N-(6-(1-methyl-1H-pyrazol-4-yl)isoquinolin-3-yl)piperidine-4-carboxamide] showed a pEC50 of 7.62. In the case of `Cn1cc(-c2ccc3cnc(NC(=O)C4CCN(S(C)(=O)=O)CC4)cc3c2)cn1` [Compound 330, N-(6-(1-Methyl-1H-pyrazol-4-yl)isoquinolin-3-yl)-1-(methylsulfonyl) piperidine-4-carboxamide], the pEC50 was 7.82. `[2H]C([2H])([2H])n1cc(-c2ccc3cnc(NC(=O)C4CCN(CC(C)C)CC4)cc3c2)cn1` [Compound 972, 1-Isobutyl-N-(6-(1-(methyl-d3)-1H-pyrazol-4-yl)isoquinolin-3-yl)piperidine-4-carboxamide] gave a pEC50 of 7.19. In the case of `[2H]C([2H])([2H])C([2H])(C([2H])([2H])[2H])C([2H])([2H])N1CCC(C(=O)Nc2cc3cc(-c4cnn(C)c4)ccc3cn2)CC1` [Compound 1086, N-(6-(1-Methyl-1H-pyrazol-4-yl)isoquinolin-3-yl)-1-(2-(methyl-d3)propyl-1,1,2,3,3,3-d6)piperidine-4-carboxamide], the pEC50 was 7.55. Work on `[2H]c1nc(NC(=O)C2CCN(CC(C)C)CC2)cc2cc(-c3cnn(C)c3)ccc12` [Compound 1087, 1-Isobutyl-N-(6-(1-methyl-1H-pyrazol-4-yl)isoquinolin-3-yl-1-d)piperidine-4-carboxamide] yielded a pEC50 of 7.43.
